Data reported in US7851650B2, “Compounds for treating inflammation and pain” (Olatec Industries LLC, priority 2009, dated 2010).

In the case of 2-N halo-4-methylsulfonyl-butyric acid, the “stability in the organic solvent at room temperature” value (organic solvent extract, room temperature (22-28 C), for at least a month) is reported as “stable” and the “stability of lyophilized product upon exposure to water or air” value (white lyocake from aqueous reaction, flash frozen at -80 C, lyophilized, sealed under inert gas, then exposed to water or air) is reported as “immediately underwent oxidative degradation”.
